Experimental data published in patent publication US20090137572A1, “2-substituted-4-heteroaryl-pyrimidines useful for the treatment of proliferative disorders” (priority 2004, published 2009).
Where two headings read alike, the source gives them in different places.

Chains of the proteins cited; added tags and fusions are not shown. Lines headed by an entry give the natural chain unless they say otherwise; changes in a name come on top. Residues count along the entry.
UniProt P06493, whole entry: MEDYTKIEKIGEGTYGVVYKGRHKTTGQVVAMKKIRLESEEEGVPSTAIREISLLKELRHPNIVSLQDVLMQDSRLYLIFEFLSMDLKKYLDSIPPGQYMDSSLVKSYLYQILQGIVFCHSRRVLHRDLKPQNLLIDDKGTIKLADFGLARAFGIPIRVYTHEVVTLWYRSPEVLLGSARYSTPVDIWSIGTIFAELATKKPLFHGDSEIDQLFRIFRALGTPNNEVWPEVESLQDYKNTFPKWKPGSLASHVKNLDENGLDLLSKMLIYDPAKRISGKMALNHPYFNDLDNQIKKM
UniProt P49841, whole entry, species assumed: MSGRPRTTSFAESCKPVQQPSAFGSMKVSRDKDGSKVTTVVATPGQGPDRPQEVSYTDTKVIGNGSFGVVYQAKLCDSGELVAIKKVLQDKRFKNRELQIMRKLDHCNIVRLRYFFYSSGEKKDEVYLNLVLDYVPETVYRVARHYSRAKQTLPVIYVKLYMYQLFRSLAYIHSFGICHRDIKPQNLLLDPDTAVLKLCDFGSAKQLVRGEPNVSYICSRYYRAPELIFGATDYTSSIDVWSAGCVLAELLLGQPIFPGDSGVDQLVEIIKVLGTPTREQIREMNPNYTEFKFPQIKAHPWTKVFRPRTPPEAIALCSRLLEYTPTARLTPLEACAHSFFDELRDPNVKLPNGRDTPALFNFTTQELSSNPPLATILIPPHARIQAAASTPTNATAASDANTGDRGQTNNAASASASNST
UniProt P50613: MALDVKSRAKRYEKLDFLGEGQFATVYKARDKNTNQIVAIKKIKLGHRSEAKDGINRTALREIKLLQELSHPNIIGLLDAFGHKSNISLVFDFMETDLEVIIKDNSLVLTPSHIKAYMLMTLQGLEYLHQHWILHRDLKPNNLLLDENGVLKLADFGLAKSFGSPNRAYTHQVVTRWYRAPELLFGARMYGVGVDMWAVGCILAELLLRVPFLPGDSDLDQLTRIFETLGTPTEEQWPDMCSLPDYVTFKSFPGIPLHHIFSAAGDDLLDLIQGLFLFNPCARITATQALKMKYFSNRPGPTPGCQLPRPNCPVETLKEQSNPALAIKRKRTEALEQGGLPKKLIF
UniProt P11802: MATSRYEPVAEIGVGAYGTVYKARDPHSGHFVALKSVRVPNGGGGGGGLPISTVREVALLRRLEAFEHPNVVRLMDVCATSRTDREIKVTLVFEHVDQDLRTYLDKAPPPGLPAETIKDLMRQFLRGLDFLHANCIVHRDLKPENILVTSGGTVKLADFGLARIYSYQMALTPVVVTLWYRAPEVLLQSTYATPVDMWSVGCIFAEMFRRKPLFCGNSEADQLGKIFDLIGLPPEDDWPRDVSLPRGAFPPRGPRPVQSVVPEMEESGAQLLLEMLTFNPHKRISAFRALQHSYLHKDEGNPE
UniProt P36888, 27-993, species assumed: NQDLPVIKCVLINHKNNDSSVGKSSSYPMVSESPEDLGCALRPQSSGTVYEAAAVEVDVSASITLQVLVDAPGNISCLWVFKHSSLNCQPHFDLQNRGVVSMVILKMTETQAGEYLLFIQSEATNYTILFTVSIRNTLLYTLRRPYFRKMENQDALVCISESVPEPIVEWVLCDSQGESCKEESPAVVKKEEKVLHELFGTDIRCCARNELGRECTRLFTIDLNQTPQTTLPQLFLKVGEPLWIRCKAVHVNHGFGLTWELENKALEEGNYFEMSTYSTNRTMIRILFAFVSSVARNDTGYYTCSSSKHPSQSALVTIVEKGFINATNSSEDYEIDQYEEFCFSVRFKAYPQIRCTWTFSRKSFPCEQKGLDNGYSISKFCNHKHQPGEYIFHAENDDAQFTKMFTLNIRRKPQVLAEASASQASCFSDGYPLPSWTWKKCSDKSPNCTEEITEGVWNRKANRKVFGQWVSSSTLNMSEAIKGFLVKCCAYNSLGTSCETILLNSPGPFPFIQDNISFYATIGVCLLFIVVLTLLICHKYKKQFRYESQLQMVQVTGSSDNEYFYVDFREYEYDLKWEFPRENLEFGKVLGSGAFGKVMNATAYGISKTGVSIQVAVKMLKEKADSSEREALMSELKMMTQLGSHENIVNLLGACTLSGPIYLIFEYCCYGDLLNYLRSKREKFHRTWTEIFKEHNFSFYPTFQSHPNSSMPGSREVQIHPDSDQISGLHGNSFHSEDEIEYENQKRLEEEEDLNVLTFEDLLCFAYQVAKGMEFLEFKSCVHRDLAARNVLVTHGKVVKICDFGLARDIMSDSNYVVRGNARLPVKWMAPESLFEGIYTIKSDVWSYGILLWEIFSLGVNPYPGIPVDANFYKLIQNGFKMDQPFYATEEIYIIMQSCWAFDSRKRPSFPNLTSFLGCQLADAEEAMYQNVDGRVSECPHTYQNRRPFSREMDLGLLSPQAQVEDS

What was measured:
Format in all cases: biochemical
CDK2-cycline E = CDK2-cycline E (Homo sapiens, UniProt P24941); assay: Kinase assay (radioactive phosphate incorporation), CDK2-cyclin E; details: read-out: Kinase Inhibition pIC50 CDK2-cycline E (converted)
Protocol: (§1) Kinase assays. The compounds of the invention above were investigated for their ability to inhibit the enzymatic activity of various protein kinases (Table 2). This was achieved by measurement of incorporation of radioactive phosphate from ATP into appropriate polypeptide substrates. Recombinant protein kinases and kinase complexes were produced or obtained commercially. Assays were performed using 96-well plates and appropriate assay buffers (typically 25 mM β-glycerophosphate, 20 mM MOPS, 5 mM EGTA, 1 mM DTT, 1 mM […], pH 7.4), into which were added 2-4 μg of active enzyme with appropriate substrates. The reactions were initiated by addition of Mg/ATP mix (15 mM MgCl2+100 μM ATP with 30-50 kBq per well of [γ-^32P]-ATP) and mixtures incubated as required at 30° C. Reactions were stopped on ice, followed by filtration through p81 filterplates or GF/C filterplates (Whatman Polyfiltronics, Kent, UK). After washing 3 times with 75 mM aq orthophosphoric acid, plates were dried, scintillant added and incorporated radioactivity measured in a scintillation counter (TopCount, Packard Instruments, Pangbourne, Berks, UK). Compounds for kinase assay were made up as 10 mM stocks in DMSO and diluted into 10% DMSO in assay buffer.

CDK2-cyclin A = CDK2-cyclin A (Homo sapiens, UniProt P24941); assay: Kinase assay (radioactive phosphate incorporation), CDK2-cyclin A; details: read-out: Kinase Inhibition pIC50 CDK2-cyclin A (converted)
Protocol: as §1

[1] = target: T1, protein kinases (panel of Table 4) (Homo sapiens, UniProt P24941); assay: Kinase selectivity profile, kinase inhibition IC50 (Table 4), ATP 100 μM
T1 construct: other: kinase CDK2A; ATP 100 μM; other: kinase CDK2E
Protocol: For the assays shown in Table 3, the kinases were assayed at the following ATP concentrations: SAPK4, PKBΔph, GSK3b, SAPK3, CK2, MKK1, PIM2, IKKB, ERK8, and PRK2 at 5 μM; JNK, PRAK, ROCK-II, SAPK2b, CDK2, CHK1, MSK1, CSK, P70S6K, PKA, CK1, MAPKAP-K2, SGK, PKCa, PDK1, NEK 7, and MAPKAP-K3 at 20 μM; SAPK2a, LCK, AMPK, MAPK2, DYRK1a, MAPKAP-K1a, NEK-6, NEK2a, PBK, CAMK-1, SRPK-1, JNK3, MNK2, RSK2, MNK1, PKBB, and SmMLCK at 50 μM. For the assays in Table 4 the ATP concentration was 100 μM throughout.

CDK1-cyclin B = CDK1-cyclin B (Homo sapiens, UniProt P06493); assay: Kinase assay (radioactive phosphate incorporation), CDK1-cyclin B; details: read-out: Kinase Inhibition pIC50 CDK1-cyclin B (converted)
Protocol: as §1

GSK3b = GSK3b (Homo sapiens, UniProt P49841); assay: Kinase assay (radioactive phosphate incorporation), GSK-3b; details: read-out: Kinase Inhibition pIC50 GSK-3b (converted)
Protocol: as §1

CDK7/cyclin H = CDK7/cyclin H (Homo sapiens, UniProt P50613); assay: CDK 7 assay (CTD peptide substrate); details: read-out: Kinase Inhibition pIC50 CDK7-cyclin H (converted)
Protocol: as §1, with “Compounds for kinase assay were made up as 10 mM stocks in DMSO and diluted into 10% DMSO in assay buffer.” left out
CDK 7 and 9 assays. […] Microscint 40 scintillation liquid (50 μL) was added to each well, and the amount of ^32P incorporation for each sample was measured using a Packard Topcount microplate scintillation counter.

CDK4-cyclin D1 = CDK4-cyclin D1 (Homo sapiens, UniProt P11802); assay: Kinase assay (radioactive phosphate incorporation), CDK4-cyclin D1; details: read-out: Kinase Inhibition pIC50 CDK4-cyclin D1 (converted)
Protocol: as §1

[2] = target: Flt3 (FMS-like tyrosine kinase-3) (Homo sapiens, UniProt P36888); assay: Kinase assay (radioactive phosphate incorporation), Flt3; details: pIC50 is -log(IC50, M), read-out: Kinase Inhibition pIC50 Flt3 (converted)
Protocol: as §1

SMILES | IC50 (CDK2-cycline E) | IC50 (CDK2-cyclin A) | other results
CCNc1nc(C)c(-c2ccnc(Nc3ccc(CNC(C)=O)cc3)n2)s1 [Compound 13, N-{4-[4-(2-Ethylamino-4-methyl-thiazol-5-yl)-pyrimidin-2-ylamino]-benzyl}-acetamide] | 39.8 nM |  | 
CNc1nc(C)c(-c2ccnc(Nc3cccc(S(N)(=O)=O)c3)n2)s1 [Compound 19, 3-[4-(4-Methyl-2-methylamino-thiazol-5-yl)-pyrimidin-2-ylamino]-benzenesulfonamide] | 5.01 nM | 158 nM | IC50 ([1]; kinase CDK2A, read-out: Kinase inhibition IC50, CDK2A): 160 nM; IC50 ([1]; kinase CDK2E, read-out: Kinase inhibition IC50, CDK2E): 5 nM
COc1cc(Nc2nccc(-c3sc(C)nc3C)n2)cc(OC)c1OC [Compound 25, [4-(2,4-Dimethyl-thiazol-5-yl)-pyrimidin-2-yl]-(3,4,5-trimethoxy-phenyl)-amine] | 1000 nM | 3980 nM | IC50 (CDK1-cyclin B): 3980 nM
CC(=O)N1CCN(c2ccc(Nc3nccc(-c4sc(N)nc4C)n3)cc2)CC1 [Compound 57, 1-(4-{4-[4-(2-Amino-4-methyl-thiazol-5-yl)-pyrimidin-2-ylamino]-phenyl}-piperazin-1-yl)-ethanone] | 12600 nM |  | IC50 (GSK3b): 12600 nM
CCNc1nc(C)c(-c2ccnc(Nc3cc(OC)c(OC)c(OC)c3)n2)s1 [Compound 24, [4-(2-Ethylamino-4-methyl-thiazol-5-yl)-pyrimidin-2-yl]-(3,4,5-trimethoxy-phenyl)-amine] | 501 nM | 1260 nM | IC50 (CDK7/cyclin H): 501 nM; IC50 (CDK4-cyclin D1): 1260 nM
CNc1nc(C)c(-c2ccnc(Nc3cc(OC)c(OC)c(OC)c3)n2)s1 [Compound 23, [4-(4-Methyl-2-methylamino-thiazol-5-yl)-pyrimidin-2-yl]-(3,4,5-trimethoxy-phenyl)-amine] | 501 nM | 1260 nM | IC50 [2]: 12.6 nM
